# From publication PMC4056445 (Journal of ethnopharmacology, 2011)
# Target: PDE5 (Mus musculus, UniProt Q8CG03)
# Assay: PDE5 inhibition, two-step radioactive [3H]cGMP assay
# Format: biochemical
# Conditions: pure compounds; selectivity on PDE5 over PDE6
smiles,measurement,value
"OCCN(CCO)c1nc(N2CCCCC2)c2nc(N(CCO)CCO)nc(N3CCCCC3)c2n1 [Dipyridamole, dipyridamole]",IC50 ratio PDE6/PDE5,0.16
